Patent publication US20110269161

Molecular target: T1, peptide H5 (EYDRLYEEYTPFR), derived from Phosphatidylinositol 3-kinase regulatory subunit p85α(Tyr-467)/p55γ(Tyr-199)
T1 chain: EYDRLYEEYTPFR

B1: epidermal growth factor (EGF) receptor (EGFR, 672-1210), purified human active kinase (protein)
chain: HIVRKRTLRRLLQERELVEPLTPSGEAPNQALLRILKETEFKKIKVLGSGAFGTVYKGLWIPEGEKVKIPVAIKELREATSPKANKEILDEAYVMASVDNPHVCRLLGICLTSTVQLITQLMPFGCLLDYVREHKDNIGSQYLLNWCVQIAKGMNYLEDRRLVHRDLAARNVLVKTPQHVKITDFGLAKLLGAEEKEYHAEGGKVPIKWMALESILHRIYTHQSDVWSYGVTVWELMTFGSKPYDGIPASEISSILEKGERLPQPPICTIDVYMIMVKCWMIDADSRPKFRELIIEFSKMARDPQRYLVIQGDERMHLPSPTDSNFYRALMDEEDMDDVVDADEYLIPQQGFFSSPSTSRTPLLSSLSATSNNSTVACIDRNGLQSCPIKEDSFLQRYSSDPTGALTEDSIDDTFLPVPEYINQSVPKRPAGSVQNPVYHNQPLNPAPSRDPHYQDPHSTAVGNPEYLNTVQPTCVNSTFDSPAHWAQKGSHQISLDNPDYQQDFFPKEAKPNGIFKGSTAENAEYLRVAPQSSEFIGA
in vitro kinase reaction with purified kinase: robust phosphorylation by Src but not EGFR
